Composite z-score and z-score data for eight compounds are collected here from PubChem BioAssay.

Chains of the proteins cited; added tags and fusions are not shown. Lines headed by an entry give the natural chain unless they say otherwise; changes in a name come on top.
UniProt P02866, whole entry, looked up: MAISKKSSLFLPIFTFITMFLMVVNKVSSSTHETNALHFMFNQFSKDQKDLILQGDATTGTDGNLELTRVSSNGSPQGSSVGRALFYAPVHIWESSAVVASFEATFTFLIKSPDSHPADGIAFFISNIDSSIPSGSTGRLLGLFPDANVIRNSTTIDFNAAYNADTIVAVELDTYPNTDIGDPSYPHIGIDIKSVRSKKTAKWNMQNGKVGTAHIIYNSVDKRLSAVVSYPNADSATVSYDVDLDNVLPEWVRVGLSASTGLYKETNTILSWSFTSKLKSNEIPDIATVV
UniProt Q05397, whole entry, looked up: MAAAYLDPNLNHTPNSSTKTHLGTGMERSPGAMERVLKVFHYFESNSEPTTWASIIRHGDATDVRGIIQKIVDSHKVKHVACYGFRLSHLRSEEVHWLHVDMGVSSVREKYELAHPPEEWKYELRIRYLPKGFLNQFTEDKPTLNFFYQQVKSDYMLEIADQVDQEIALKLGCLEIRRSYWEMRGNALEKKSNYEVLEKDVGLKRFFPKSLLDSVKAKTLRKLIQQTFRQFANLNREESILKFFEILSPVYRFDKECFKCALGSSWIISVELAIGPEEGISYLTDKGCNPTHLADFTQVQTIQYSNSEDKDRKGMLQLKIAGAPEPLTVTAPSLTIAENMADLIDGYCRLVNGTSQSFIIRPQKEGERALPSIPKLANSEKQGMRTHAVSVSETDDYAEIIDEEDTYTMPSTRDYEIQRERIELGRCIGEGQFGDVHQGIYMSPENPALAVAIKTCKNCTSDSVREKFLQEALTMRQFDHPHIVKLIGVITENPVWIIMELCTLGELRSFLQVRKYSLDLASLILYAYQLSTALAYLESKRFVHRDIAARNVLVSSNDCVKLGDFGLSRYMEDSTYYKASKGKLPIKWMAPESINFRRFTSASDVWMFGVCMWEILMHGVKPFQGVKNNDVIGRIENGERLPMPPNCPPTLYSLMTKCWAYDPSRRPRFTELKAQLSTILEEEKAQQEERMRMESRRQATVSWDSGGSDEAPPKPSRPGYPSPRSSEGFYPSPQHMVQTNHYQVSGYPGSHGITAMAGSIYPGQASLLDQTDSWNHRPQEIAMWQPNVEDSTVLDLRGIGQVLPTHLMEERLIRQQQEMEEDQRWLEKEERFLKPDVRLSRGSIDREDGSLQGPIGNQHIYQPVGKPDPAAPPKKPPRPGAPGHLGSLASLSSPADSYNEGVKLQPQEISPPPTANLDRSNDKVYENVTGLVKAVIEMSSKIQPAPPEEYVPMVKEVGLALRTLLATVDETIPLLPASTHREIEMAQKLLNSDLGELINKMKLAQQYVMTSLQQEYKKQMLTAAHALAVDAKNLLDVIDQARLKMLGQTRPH
UniProt P19883: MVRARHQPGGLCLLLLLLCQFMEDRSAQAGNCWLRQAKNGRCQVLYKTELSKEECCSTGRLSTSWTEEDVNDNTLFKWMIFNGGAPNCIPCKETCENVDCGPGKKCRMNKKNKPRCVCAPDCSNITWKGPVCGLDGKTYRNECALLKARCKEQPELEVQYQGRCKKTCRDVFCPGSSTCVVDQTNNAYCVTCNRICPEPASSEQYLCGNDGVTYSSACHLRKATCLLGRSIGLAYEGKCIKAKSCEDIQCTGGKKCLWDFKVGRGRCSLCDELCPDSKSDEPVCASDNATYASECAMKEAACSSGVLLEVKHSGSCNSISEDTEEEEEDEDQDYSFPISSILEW
UniProt P09038, whole entry, looked up: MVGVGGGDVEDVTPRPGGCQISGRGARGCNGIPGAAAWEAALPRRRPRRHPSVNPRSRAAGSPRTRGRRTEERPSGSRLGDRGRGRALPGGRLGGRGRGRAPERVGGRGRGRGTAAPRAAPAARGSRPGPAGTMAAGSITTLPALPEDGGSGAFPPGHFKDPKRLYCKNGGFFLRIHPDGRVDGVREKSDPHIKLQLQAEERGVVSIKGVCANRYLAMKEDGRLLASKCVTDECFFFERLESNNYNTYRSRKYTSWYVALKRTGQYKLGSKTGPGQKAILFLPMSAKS
UniProt P22629, whole entry, looked up: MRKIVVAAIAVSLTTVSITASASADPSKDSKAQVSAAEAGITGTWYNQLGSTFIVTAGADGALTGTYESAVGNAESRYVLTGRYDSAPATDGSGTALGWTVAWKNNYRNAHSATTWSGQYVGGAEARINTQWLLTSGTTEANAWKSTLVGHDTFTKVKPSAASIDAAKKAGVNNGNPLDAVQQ
UniProt O14656: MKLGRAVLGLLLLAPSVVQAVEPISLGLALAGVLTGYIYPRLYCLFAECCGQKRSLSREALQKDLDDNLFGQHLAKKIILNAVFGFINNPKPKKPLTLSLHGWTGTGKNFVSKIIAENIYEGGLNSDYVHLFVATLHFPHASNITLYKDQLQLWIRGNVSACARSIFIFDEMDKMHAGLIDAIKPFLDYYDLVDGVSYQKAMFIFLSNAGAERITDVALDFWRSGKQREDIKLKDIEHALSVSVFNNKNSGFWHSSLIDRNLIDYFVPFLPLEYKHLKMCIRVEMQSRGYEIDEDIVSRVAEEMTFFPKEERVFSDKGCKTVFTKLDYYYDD

This is a selection; strong and weak results do not stand in their true shares. Activity calls are given as the source filed them.

A short description of assay [1]: compound binding in COS7 lysate, probe aLAP1, primary screen, cell lysate, small-molecule microarray (AID 1124).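 Further: lysate comes from COS7 cells expressing LAP1 and is applied at 0.3 µg/mL; score merges spot fluorescence near 667 nm with signal-to-noise over triplicate slides.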 The settings on record: probe aLAP1, fluorescence, higher = more signal.
For the next assay, the system named is Sam68 (KHDRBS1). The assay can be described thus: Sam68 small-molecule binders, primary screen, biochemical, small-molecule microarray, 635 nm fluorescence (AID 1125).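 Further: score merges 667 nm channel intensity with signal to noise over triplicate slides.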 The settings on record: small-molecule microarray binding, higher = more signal.
Assay [2] relates to Chordin-like protein 2 (CHRDL2). The assay can be described thus: CHRDL2 small-molecule binders, primary screen, biochemical, small-molecule microarray, 635 nm fluorescence (AID 1126).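 Further: printed compound slides probed with Chrdl2 protein at 4 µg/mL for 1 h at 4 C; score merges 667 nm emission intensity with signal to noise over three replicate slides.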 Conditions: small-molecule microarray binding, fluorescence 635 nm; higher = more signal.
For assay [3], the target named is Concanavalin-A (Canavalia ensiformis) (UniProt P02866). The assay can be described thus: ConA small-molecule binders, primary screen, artefact control for SMM control protein annotation, biochemical, small-molecule microarray, Alexa647 label, 635 nm (AID 1127).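 Further: z combines 667 nm emission intensity with signal-to-noise across three replicate slides.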 The settings on record: ConA-A647 binding fluorescence, higher = more signal.
Assay [4] in a line: anti-His antibody binders, primary screen, artefact control for SMM control protein annotation, biochemical, small-molecule microarray, 635 nm fluorescence (AID 1128).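 Further: score merges feature fluorescence with signal-to-noise for each printed compound spot.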 Conditions: anti-His Alexa647 antibody binding, higher = more signal.
Assay [5] addresses Focal adhesion kinase 1 (Homo sapiens) (UniProt Q05397). The assay can be described thus: small-molecule microarray binders of FAK, primary screen, biochemical, 635/667 nm fluorescence, BSA, DTT (AID 1130).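 Further: composite of spot emission at 667 nm and signal to noise over triplicate slides.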 Conditions: PTK2 binding, 635 nm fluorescence, higher = more signal.
Assay [6] has as its system Fibrinogen (Alexa647-labelled). The assay can be described thus: fibrinogen binders on compound microarrays, profiling panel, artefact control for SMM control-protein annotation, biochemical, small-molecule microarray, 635/667 nm fluorescence (AID 1131).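 Further: z-score merges 667 nm fluorescence with per-spot signal-to-noise over triplicate slides.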 Conditions: fibrinogen-A647 binding fluorescence, higher = more signal.
The target in assay [7] is Follistatin (Homo sapiens) (UniProt P19883). The assay can be described thus: follistatin binders on small-molecule microarrays, primary screen, biochemical, small-molecule microarray, 635/667 nm fluorescence (AID 1132). The settings on record: FST binding, 635 nm fluorescence, higher = more signal.
For assay [8], the target named is Fibroblast growth factor 2 (Homo sapiens) (UniProt P09038). In words: FGF2 binders on small-molecule microarrays, primary screen, biochemical, small-molecule microarray, 635/667 nm fluorescence (AID 1133). The settings on record: small-molecule microarray binding, FGF2, fluorescence 635/667; higher = more signal.
A short description of assay [9]: mitochondrial membrane potential change in A549 cells, profiling panel, cell-based, JC-1 fluorescence, basal, 24 h, 100 nL (AID 1138).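 Further: A549 lung adenocarcinoma cells under basal conditions with no added stimulus; test concentration not given here.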 The settings on record: higher = more signal.
The next assay concerns Lefty1. In words: Lefty1 binders on small-molecule microarrays, primary screen, biochemical, small-molecule microarray, 635/667 nm fluorescence (AID 1139). Conditions: small-molecule microarray binding, fluorescence 635/667; higher = more signal.
For assay [10], the system named is wheat germ agglutinin (Triticum aestivum), Alexa647-labelled. In words: wheat germ agglutinin binders on compound microarrays, profiling panel, artefact control for SMM control-protein annotation, biochemical, small-molecule microarray, 635/667 nm fluorescence (AID 1140).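 Further: score merges 667 nm feature emission with signal to noise over triplicate slides.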 Conditions: WGA-A647 binding, 635 nm fluorescence, higher = more signal.
In assay [11] the test system is Wnt5a (protein binding on small-molecule microarray). In words: Wnt5a binders on small-molecule microarray, primary screen, biophysical, 635/667 nm fluorescence (AID 1142).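 Further: fluorescence read at 667 nm with signal to noise per printed feature.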 Conditions: 635 nm fluorescence, higher = more signal.
Assay [12] can be described thus: cell viability in Huh7 cells, primary screen, cytotoxicity control for HCV replication inhibitor project, CellTiter-Glo luminescence, basal, 48 h (AID 1143).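 Further: Huh7 hepatoma cells carrying a hepatitis C replication reporter with no stimulus; test concentration not given here.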 Conditions: Huh7 HCV replicon, higher = more signal, called active from +8 up or from −8 down.
Assay [13] in a line: CREB reporter modulators under forskolin, primary screen, cell-based, PC12, CRE-LacZ reporter, forskolin-stimulated (AID 1146).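 Further: PC12 cells with 6xCRE LacZ reporter stimulated by forskolin 10 µM; beta-galactosidase reporter signal reflecting CREB driven transcription.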 The settings on record: luminescence, 4.5 h, higher = more signal, called active from +8 up or from −8 down.
Assay [14] addresses Streptavidin (Streptomyces avidinii) (UniProt P22629). In words: streptavidin binders on small-molecule microarray, primary screen, artefact control for SMM compound annotation, biophysical, 635/667 nm fluorescence (AID 1147).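 Further: signal reflects streptavidin binding to arrayed compounds as a control protein.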 The settings on record: streptavidin binding, higher = more signal.
Assay [15] in a line: small-molecule binders of probe aInhba, primary screen, biochemical, small-molecule microarray, 635/667 nm fluorescence (AID 1148).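 Further: score merges 667nm spot fluorescence with signal-to-noise for antibody binding to printed compounds.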 Conditions: higher = more signal.
Assay [16] has as its target Torsin-1A (Homo sapiens) (UniProt O14656). The assay can be described thus: torsin A binders from cell lysate, primary screen, small-molecule microarray, wild-type, 635/667 nm (AID 1149). Conditions: COS7 hTOR1A-WT lysate, 635 nm fluorescence, higher = more signal.
The target is the same in assay [17]. In words: small-molecule binders of mutant TOR1A in lysate, primary screen, cell lysate, small-molecule microarray, COS7 lysate, 635/667 nm fluorescence (AID 1150).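 Further: score pools 667 nm emission and signal to noise measuring lysate protein binding.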 Conditions: COS7 hTOR1A mutant lysate, 635 nm fluorescence, higher = more signal.
Assay [18] deals with Sonic hedgehog protein (Shh). The assay can be described thus: small-molecule binders of Shh protein, primary screen, biochemical, small-molecule microarray, 635/667 nm fluorescence (AID 1151).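 Further: Shh protein binding to compounds spotted on small-molecule microarray slides; score combines spot fluorescence intensity with signal-to-noise across triplicate slides.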 Conditions: small-molecule microarray binding, 635 nm fluorescence; higher = more signal.

Regarding `COP(=O)(/N=C1/CC(CCCO)=CC(c2ccc(CN3CCCC3)cc2)N1Cc1cccc(OC(F)(F)F)c1)OC` (stereo not given), the composite z-score was determined as 0.997 in [1]; 1.05 in the assay on Sam68 (KHDRBS1); 0.622 in assay [2]; 0.883 in assay [3]; 0.8 in [4]; 0.469 in assay [5]. Further, the composite z-score is 0.629 in assay [6]; 1.29 in [7]; 0.461 in assay [8]; 1.11 with Lefty1; 0.95 in [10]; 0.272 in assay [11]. For the same compound, the composite z-score in assay [14] was 0.866; in assay [15], 0.424; in the assay with Torsin-1A (Homo sapiens) [16], 1.7; in the assay with Torsin-1A (Homo sapiens) [17], 0.418; in assay [18] it was 1.28. The results for the z-score in [9], in [12] and in assay [13] were 2.96, inactive: -2.34 and inactive: 0.391, respectively.

Take `COP(=O)(/N=C1/CC(CCCO)=CC(C2CC2)N1Cc1cccc(OC(F)(F)F)c1)OC` (stereo not given): the composite z-score in assay [1] is 0.568; in the assay with Sam68 (KHDRBS1), -0.521; in [2] it was -0.092; in [3] it was 0.399; in assay [4], 1.45; in assay [5], -0.367. Further, the composite z-score in [6] is 0.333; in assay [7], 0.715; in assay [8] it was -0.0206; in the assay with Lefty1, 0.0602; in assay [10], -0.0548; in assay [11] it was -0.0514. The composite z-score in assay [14] turned out to be 0.453; in assay [15] it was 0.117; in the assay with Torsin-1A (Homo sapiens) [16], 1.02; in the assay with Torsin-1A (Homo sapiens) [17], 0.547; in [18], 0.752. The figures for the z-score in assay [9], in [12] and in assay [13] were 1.26, inactive: -1.6 and inactive: -0.0557, respectively.

`COP(=O)(/N=C1/CC(CCCO)=CC(C2CC2)N1C)OC` (stereo not given): the composite z-score in [1] was -0.421; in the assay with Sam68 (KHDRBS1), 0.206; in assay [2] it was 0.124; in assay [3] it was 0.397; in [4], 0.142; in assay [5] it was 0.198. Moreover, the composite z-score was 1 in assay [6]; 0.739 in assay [7]; 0.131 in assay [8]; -0.0188 in the assay on Lefty1; 0.264 in assay [10]; 0.18 in assay [11]. Besides, the composite z-score in assay [14] was 0.53; in assay [15], -0.008; with Torsin-1A (Homo sapiens) [16], 0.899; in the assay with Torsin-1A (Homo sapiens) [17], 0.321; in assay [18], 0.506. Further, the values for the z-score in [9], in [12] and in assay [13] were 1.14, inactive: -0.79 and inactive: -1.16, respectively.

Take `COP(=O)(/N=C1/CC(c2ccc(CO)cc2)=CC(C2CC2)N1Cc1sc2ccccc2c1Cl)OC` (stereo not given): the composite z-score in assay [1] was 0.8; with Sam68 (KHDRBS1), 0.872; in assay [2] it was 1.33; in assay [3], 1.05; in [4], 1.96; in assay [5] it was -0.708. Also, the composite z-score in [6] worked out at 0.807; in assay [7] it was 1.31; in assay [8], 1.34; in the assay with Lefty1, 1.41; in assay [10] it was 1.22; in assay [11] it was 1.28. The composite z-score in assay [14] turned out to be 1.86; in assay [15] it was 1.1; in the assay with Torsin-1A (Homo sapiens) [16], 0.914; with Torsin-1A (Homo sapiens) [17], 1.25; in [18], 1.22. Besides, the figures for the z-score in assay [9], in [12] and in [13] were 2.32, inactive: -5.52 and inactive: -3.16, respectively.

Take `COP(=O)(/N=C1/CC(c2ccc(CO)cc2)=CC(C2CC2)N1Cc1cc2c(cc1Br)OCO2)OC` (stereo not given): the composite z-score in assay [1] was 0.59; with Sam68 (KHDRBS1), 0.125; in [2], 0.406; in assay [3], 0.686; in assay [4] it was 0.275; in [5] it was -0.186. For the same compound, the composite z-score in assay [6] turned out to be 0.72; in [7], 1.28; in assay [8], 0.73; in the assay with Lefty1, 0.848; in assay [10], 0.126; in [11], 0.312. Besides, the composite z-score in assay [14] was 0.758; in assay [15] it was 0.288; with Torsin-1A (Homo sapiens) [16], 1.65; with Torsin-1A (Homo sapiens) [17] it was 0.628; in assay [18] it was 1.27. The values for the z-score in assay [9], in [12] and in assay [13] were 1.39, inactive: -2.61 and inactive: -1.59, respectively.

For `COP(=O)(/N=C1/CC(CCCO)=CC(c2cccs2)N1C)OC` (stereo not given), the composite z-score in assay [1] was 1.17; in the assay on Sam68 (KHDRBS1), 0.443; in assay [2], -0.195; in assay [3], 1.02; in [4] it was 3.48; in [5], 0.711. For the same compound, the composite z-score in assay [6] was determined as 0.886; in [7] it was 1.18; in [8], 0.442; in the assay with Lefty1, 1.55; in assay [10], 1.25; in assay [11], 0.335. Further, the composite z-score in assay [14] was determined as 1.21; in assay [15] it was 0.5; with Torsin-1A (Homo sapiens) [16], 0.621; with Torsin-1A (Homo sapiens) [17], 0.531; in assay [18] it was 1.51. Further, the z-score in [9] is 1.91; in assay [12], inactive: -1.46; in [13], inactive: -2.39.

Regarding `O=P(/N=C1/CC(CCCO)=CC(c2ccc(CN3CCCC3)cc2)N1Cc1sc2ccccc2c1Cl)(Oc1ccccc1)Oc1ccccc1` (stereo not given), the composite z-score in assay [1] was 0.125; with Sam68 (KHDRBS1), 0.13; in assay [2], -0.594; in [3], 0.851; in [4], 2.33; in [5], 0.111. The composite z-score came out at 0.588 in assay [6]; 0.241 in [7]; 0.06 in [8]; 0.058 in the assay on Lefty1; 0.931 in assay [10]; 0.0248 in [11]. For the same compound, the composite z-score in [14] is 1.1; in assay [15], 0.0497; with Torsin-1A (Homo sapiens) [16], 0.348; with Torsin-1A (Homo sapiens) [17], 0.36; in assay [18], 0.674. Also, the z-score in assay [9] is 0.516; in assay [12] it was inactive: -5.93; in [13], inactive: 0.366.

As for `CN1/C(=N\P(=O)(Oc2ccccc2)Oc2ccccc2)CC(CCCO)=CC1c1cccs1` (stereo not given), the composite z-score in assay [1] is 1.29; in the assay with Sam68 (KHDRBS1), 0.54; in [2], -0.239; in assay [3] it was 0.629; in [4], 1.22; in assay [5] it was 2.5. In addition, the composite z-score in assay [6] came out at 0.583; in assay [7] it was 1.28; in assay [8] it was 0.342; with Lefty1, 0.529; in [10], 1.41; in assay [11], 0.322. The composite z-score in assay [14] came out at 0.778; in assay [15] it was 0.0173; with Torsin-1A (Homo sapiens) [16], 0.378; in the assay with Torsin-1A (Homo sapiens) [17], 0.161; in assay [18] it was 0.836. Moreover, the z-score in assay [9] was -0.681; in [12], inactive: -0.15; in assay [13] it was inactive: -0.0216.
